# OPERA 2.9 data: melting point values

Source: data files of OPERA 2.9 (Mansouri et al.), github.com/kmansouri/OPERA.

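OPERA's authors assembled the values from existing databases and did not measure them anew. A listed value is a point estimate from one report or more. How each value was measured is not recorded, so precision varies. A value may pool stereoisomers or salt forms, and the file does not say which form was measured. Some entries may be limits or estimates that an upstream database listed as plain numbers.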

The melting point is given in degrees Celsius.

- Cn1cc(C=O)c(=O)n(C)c1=O: melting point 122 °C
- C=CCOc1ccccc1C(=O)O [2-(allyloxy)benzoic acid]: melting point 59 °C
- Clc1cccc(-c2c(Cl)c(Cl)cc(Cl)c2Cl)c1Cl [2,2',3,3',5,6-Hexachlorobiphenyl]: melting point 132 °C
- N=C(NO)C1CCCC1 [N-Hydroxycyclopentanecarboximidamide]: melting point 75 °C
- CC[C@]1(CC=C2CCCc3cc(OC)ccc32)C(=O)CC[C@@H]1O: melting point 91 °C
- Cc1ccc(O)c(F)c1F [2,3-Difluoro-4-methylphenol]: melting point 36.5 °C
- NS(=O)(=O)c1ccc2c(c1)OCCO2 [2,3-dihydro-1,4-benzodioxine-6-sulfonamide]: melting point 198 °C
- Cc1ccc(Oc2ccc(NC(=O)CCl)cc2)cc1 [2-chloro-N-[4-(4-methylphenoxy)phenyl]acetamide]: melting point 156 °C
- CCOC(=O)c1c(-c2ccc(C)c(C)c2)csc1N [ethyl 2-amino-4-(3,4-dimethylphenyl)thiophene-3-carboxylate]: melting point 81.5 °C
- O=C(O)c1cnsn1 [1,2,5-thiadiazole-3-carboxylic acid]: melting point 168 °C
- Cc1cccc(F)c1C#N [2-Fluoro-6-methylbenzonitrile]: melting point 46 °C
- COC(=O)n1c(-c2cscn2)nc2ccccc21 [Methyl 2-(1,3-thiazol-4-yl)-1H-benzimidazole-1-carboxylate]: melting point 124 °C
- CCn1c(-c2ccc(C(C)(C)C)cc2)n[nH]c1=S [5-(4-tert-butylphenyl)-4-ethyl-4H-1,2,4-triazole-3-thiol]: melting point 131 °C
- O=C(O)CNC(=O)C1CCCCC1 [Hexahydrohippurate]: melting point 155 °C
- COC(=O)Nc1ccc(Cl)c(Cl)c1 [Swep]: melting point 113 °C
- CCCC(=O)c1cccc([N+](=O)[O-])c1 [1-(3-Nitrophenyl)-1-butanone]: melting point 61 °C
- COc1ccccc1NCCC(=O)O [b-Alanine, N-(2-methoxyphenyl)-]: melting point 85 °C
- Cc1c(F)cccc1CC#N [2-(3-fluoro-2-methylphenyl)acetonitrile]: melting point 46.5 °C
- COc1cc(C(=O)O)ccc1OC1CCCC1 [4-(Cyclopentyloxy)-3-methoxybenzoic acid]: melting point 154 °C
- N#CC1(N)CCCCC1 [1-Aminocyclohexanecarbonitrile]: melting point 26 °C
- CCOc1c(Br)cc(C=O)cc1OC [3-bromo-4-ethoxy-5-methoxybenzaldehyde]: melting point 85 °C
- Cc1nn(C)c(C)c1NC(=O)CCl [2-chloro-n-(1,3,5-trimethyl-1h-pyrazol-4-yl)acetamide]: melting point 108 °C
- CCOC(=O)c1ccc2c(c1)nc(C)n2CC [Ethyl 1-ethyl-2-methyl-1H-benzimidazole-5-carboxylate]: melting point 71 °C
- CCOC(=O)CC(=O)c1[nH]c(C)c(C(=O)OCC)c1C: melting point 142 °C
- Cc1ccc(-c2nn(-c3ccccc3)cc2C=O)o1 [3-(5-Methylfuran-2-yl)-1-phenyl-1H-pyrazole-4-carbaldehyde]: melting point 113 °C
- O=C1CCCN1c1cccc(O)c1 [1-(3-hydroxyphenyl)pyrrolidin-2-one]: melting point 202 °C
- CC(C)(CCl)c1ccccc1 [Neophyl chloride]: melting point 36 °C
- Cc1nc2sc3c(c2c(=O)n1N)CCCCC3: melting point 200 °C
- Cc1nn(-c2ccccc2)c2nc(Cl)c(C=O)cc12: melting point 190 °C
- CC(C)c1cc(N)on1 [3-isopropylisoxazol-5-amine]: melting point 34 °C
- CC1=NN(c2cccc(C(F)(F)F)c2)C(=O)C1: melting point 128 °C
- Cc1cccc([N+](=O)[O-])c1I [2-iodo-1-methyl-3-nitrobenzene]: melting point 68 °C
- CCOc1cc(Br)c(C=O)cc1OCC [2-bromo-4,5-diethoxybenzaldehyde]: melting point 71.5 °C
- CC(C)=CCC/C(C)=C/CC/C(C)=C/CC/C(C)=C/CC/C(C)=C/CC/C(C)=C/CC/C(C)=C/CC1=C(C)C(=O)c2ccccc2C1=O [Menaquinone 7]: melting point 54 °C

A selection of 4 entries from above:

- Cc1cccc(F)c1C#N [2-Fluoro-6-methylbenzonitrile]: melting point 46 °C
- Cc1c(F)cccc1CC#N [2-(3-fluoro-2-methylphenyl)acetonitrile]: melting point 46.5 °C
- Cc1ccc(Oc2ccc(NC(=O)CCl)cc2)cc1 [2-chloro-N-[4-(4-methylphenoxy)phenyl]acetamide]: melting point 156 °C
- C=CCOc1ccccc1C(=O)O [2-(allyloxy)benzoic acid]: melting point 59 °C